# Binding of CDR-mutated scFvs to a peptide of the spike HR2 region

Target: peptide PDVDLGDISGINAS, taken from heptad repeat 2 (HR2) of SARS-CoV-2 spike.

Parent: Ab-95, a human scFv built as VH, the linker GGGGSGGGGSGGGGS, VL. Only the CDRs of the light chain vary.
VH: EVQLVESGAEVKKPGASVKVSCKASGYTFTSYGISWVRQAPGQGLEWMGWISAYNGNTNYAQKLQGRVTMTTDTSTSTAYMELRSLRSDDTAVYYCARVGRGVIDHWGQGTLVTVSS
VL: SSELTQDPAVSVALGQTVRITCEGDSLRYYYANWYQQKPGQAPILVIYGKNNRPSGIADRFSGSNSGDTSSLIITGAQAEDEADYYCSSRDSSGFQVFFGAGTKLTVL

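Library AAYL52 holds single substitutions and randomly drawn double and triple substitutions in the CDRs. AlphaSeq pools MATa yeast showing the antibodies with MATalpha yeast showing the peptide. Pairs that bind mate more often; barcode pairs of the diploids are counted by sequencing. Each replicate has its own calibration line, from reference interactions of the BCL2 family. There are three technical replicates.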

Positions count from residue 1 of the parent VL; Y29W puts W in place of Y.
Scale: log10 of Kd in nM, estimated from mating counts; low values are strong binders.
An entry "n.d." has no value in the source: the pair was not observed among the diploids in that replicate. This suggests poor binding but is not conclusive.
Background: pairings of library AAYL52 with three empty control strains gave a value in 28% of cases (median 3.91, 5th percentile 2.90). Values in that range, when seen in few replicates, are hard to tell from nonspecific mating. The control count says in how many pairings with the empty strains this scFv gave a signal, with their mean in brackets.
Parent in this assay: reference entry 2.31, copy in this library 2.25.

changes | replicates, log10 nM | empty controls
Y29W/S92F | 3.09 / 2.17 / 2.27 | 3/9 (4.25)
D25T/K50P/P54A | 2.09 / 1.92 / 2.23 | 3/9 (3.33)
S92Q/S93Y/V97T | 4.31 / n.d. / n.d. | 1/9 (3.13)
S26D/R53I/D91L | 3.54 / 4.08 / n.d. | 7/9 (4.46)
E23V/R28T/S89W | 2.98 / 4.83 / 3.04 | 2/9 (3.39)
N33I/F95R | n.d. / n.d. / n.d. | 2/9 (3.51)
G24T/N51P | 3.91 / 2.84 / 2.88 | 5/9 (4.02)
G24S/S55W/R90P | 4.12 / n.d. / n.d. | 3/9 (4.41)
E23I/Y31P/S92M | 1.65 / 1.75 / 1.41 | 2/9 (4.24)
Y29W/S55L | 2.93 / 2.98 / 3.27 | 2/9 (4.10)
L27G/Y29S/Q96K | 2.69 / 2.75 / 2.47 | 7/9 (3.67)
Y31S/D91Y | 2.17 / 2.39 / 1.91 | 2/9 (4.07)
E23G/Y29S/P54D | 3.24 / 3.34 / 2.33 | 3/9 (3.59)
L27K/Y31V/S93G | n.d. / 3.27 / 3.95 | 1/9 (3.33)
L27D/A32V/D91C | 2.90 / 3.50 / n.d. | 7/9 (3.85)
R28Y/K50C/S92P | 3.71 / 2.92 / 2.62 | 2/9 (3.60)
N33G/K50G/S89R | 3.16 / 3.04 / 3.63 | 4/9 (4.24)
K50W/G94W/F98Q | 3.87 / n.d. / n.d. | 3/9 (4.23)
D25F/Y30S/P54W | 2.57 / 2.67 / 2.93 | 4/9 (4.66)
N52F/S88M/D91C | 3.82 / n.d. / 3.17 | 0/9
G49I/S93P | 1.67 / 1.79 / 2.10 | 4/9 (3.73)
K50S/R53A/D91W | n.d. / n.d. / n.d. | 1/9 (3.65)
N51L/R53F/S93N | n.d. / n.d. / n.d. | 1/9 (3.71)
D25G/L27C/D91A | 2.91 / 4.08 / 3.00 | 2/9 (3.46)
S26W/K50Q/F95N | 2.92 / 3.68 / 4.30 | 2/9 (4.53)
Y29L/N51I/V97E | n.d. / n.d. / n.d. | 2/9 (4.94)
N33D/R90W/G94V | n.d. / n.d. / n.d. | 1/9 (3.70)
R90S | 4.35 / 3.58 / 3.39 | 0/9
S26W/A32S/G94D | 4.04 / n.d. / n.d. | 5/9 (3.94)
E23I/Y31R/F98R | 3.21 / 3.39 / 2.58 | 3/9 (3.60)
N33Y/S55H/R90F | n.d. / n.d. / n.d. | 3/9 (4.39)
D91L/S92R/F95Q | 2.21 / 3.55 / 2.02 | 2/9 (2.93)
S88F/S89D/R90P | 4.57 / n.d. / n.d. | 2/9 (4.09)
G24L/Y31W/S55K | 4.85 / 4.10 / 4.08 | 5/9 (4.42)
D25Y/R53Y/S88E | 4.55 / n.d. / n.d. | 1/9 (4.13)
Y29Q/N51H/G94I | 3.62 / 3.90 / 3.07 | 4/9 (3.51)
E23C/N52P/S55K | 4.38 / n.d. / n.d. | 4/9 (3.54)
S26M/P54G/R90P | 3.38 / 3.72 / n.d. | 4/9 (3.76)
A32Y/N33Q/S93F | 3.36 / 4.86 / n.d. | 2/9 (4.19)
K50V/G94T/V97S | 2.65 / 2.68 / n.d. | 4/9 (4.06)
D25Y/R90N/G94Y | 2.59 / 2.70 / 1.72 | 4/9 (3.47)
E23K/Y31A/G94S | 2.13 / 2.30 / 1.67 | 5/9 (4.22)
L27M/S88N/S93R | 4.66 / 3.76 / 2.83 | 4/9 (3.90)
A32T/S55H/F95Q | 3.02 / 3.03 / 3.88 | 5/9 (4.23)
R28I/N51L/S92R | 3.59 / n.d. / n.d. | 2/9 (3.85)
N51C/R53N/S55I | 3.93 / 3.94 / n.d. | 2/9 (3.19)
G24I/F95M/Q96Y | n.d. / n.d. / n.d. | 1/9 (3.34)
S26A/P54R/D91F | n.d. / 4.95 / n.d. | 4/9 (4.66)
E23Y/Y30N/R53H | 0.25 / 0.25 / -0.58 | 4/9 (4.12)
L27G/R28Y/R53W | 3.63 / 4.70 / 4.37 | 8/9 (3.95)
S55E/S88C/D91G | 3.74 / 2.45 / 3.09 | 3/9 (3.25)

Data: MIT Lincoln Laboratory AlphaSeq set, Engelhart et al. 2022, doi:10.1038/s41597-022-01779-4, as distributed in FLAb.